Source: patent US20240132593A1 (KINETA, published 2024)

Experiments:
[1] = molecular target: 6.1-VISTA-ECD-Fc (human); experiment: ELISA on plate-bound VISTA-ECD-Fc
[2] = molecular target: 3xHis-Ala-VISTA-ECD-Fc (human); experiment: ELISA on plate-bound VISTA-ECD-Fc
[3] = molecular target: 7.2-VISTA-ECD-Fc (human); experiment: ELISA on plate-bound VISTA-ECD-Fc
[4] = molecular target: 3.2-VISTA-ECD-Fc (human); experiment: ELISA on plate-bound VISTA-ECD-Fc
[5] = molecular target: 2.1A-VISTA-ECD-Fc (human); experiment: ELISA on plate-bound VISTA-ECD-Fc
[6] = molecular target: 2.1E-VISTA-ECD-Fc (human); experiment: ELISA on plate-bound VISTA-ECD-Fc
[7] = molecular target: 2.3F-VISTA-ECD-Fc (human); experiment: ELISA on plate-bound VISTA-ECD-Fc
[8] = molecular target: T1, 2.3-VISTA-ECD-Fc (human); experiment: ELISA on plate-bound VISTA-ECD-Fc
T1 construct: also called VISTA-ECD mutant 2.3

[9] = molecular target: 2.1D-VISTA-ECD-Fc (human); experiment: ELISA on plate-bound VISTA-ECD-Fc
[10] = molecular target: 3.1-VISTA-ECD-Fc (human); experiment: ELISA on plate-bound VISTA-ECD-Fc
[11] = molecular target: 8xHis-Ala-VISTA-ECD-Fc (human); experiment: ELISA on plate-bound VISTA-ECD-Fc
[12] = molecular target: 5xN-VISTA-ECD-Fc (human); experiment: ELISA on plate-bound VISTA-ECD-Fc
[13] = molecular target: 2xHis-Ala-VISTA-ECD-Fc (human); experiment: ELISA on plate-bound VISTA-ECD-Fc
[14] = molecular target: 10.3-VISTA-ECD-Fc (human); experiment: ELISA on plate-bound VISTA-ECD-Fc
[15] = molecular target: T2, WT-VISTA-ECD-Fc (human); experiment: ELISA on plate-bound VISTA-ECD-Fc
T2 construct: also called human VISTA-Fc

[16] = molecular target: 2.1F-VISTA-ECD-Fc (human); experiment: ELISA on plate-bound VISTA-ECD-Fc
[17] = molecular target: 2.3D-VISTA-ECD-Fc (human); experiment: ELISA on plate-bound VISTA-ECD-Fc
[18] = molecular target: 1.2-VISTA-ECD-Fc (human); experiment: ELISA on plate-bound VISTA-ECD-Fc
[19] = molecular target: 8.1-VISTA-ECD-Fc (human); experiment: ELISA on plate-bound VISTA-ECD-Fc
[20] = molecular target: 2.1B-VISTA-ECD-Fc (human); experiment: ELISA on plate-bound VISTA-ECD-Fc
[21] = molecular target: 2.3E-VISTA-ECD-Fc (human); experiment: ELISA on plate-bound VISTA-ECD-Fc
[22] = molecular target: 4.1-VISTA-ECD-Fc (human); experiment: ELISA on plate-bound VISTA-ECD-Fc
[23] = molecular target: 2.3C-VISTA-ECD-Fc (human); experiment: ELISA on plate-bound VISTA-ECD-Fc
[24] = molecular target: 2.1C-VISTA-ECD-Fc (human); experiment: ELISA on plate-bound VISTA-ECD-Fc
[25] = molecular target: 2.3B-VISTA-ECD-Fc (human); experiment: ELISA on plate-bound VISTA-ECD-Fc
[26] = molecular target: 1.1-VISTA-ECD-Fc (human); experiment: ELISA on plate-bound VISTA-ECD-Fc
[27] = molecular target: 2.3A-VISTA-ECD-Fc (human); experiment: ELISA on plate-bound VISTA-ECD-Fc
[28] = molecular target: 2.2-VISTA-ECD-Fc (human); experiment: ELISA on plate-bound VISTA-ECD-Fc
[29] = molecular target: 5.1-VISTA-ECD-Fc (human); experiment: ELISA on plate-bound VISTA-ECD-Fc
[30] = molecular target: 7.3-VISTA-ECD-Fc (human); experiment: ELISA on plate-bound VISTA-ECD-Fc
[31] = molecular target: 1.3-VISTA-ECD-Fc (human); experiment: ELISA on plate-bound VISTA-ECD-Fc
[32] = molecular target: 7.1-VISTA-ECD-Fc (human); experiment: ELISA on plate-bound VISTA-ECD-Fc
[33] = molecular target: 7.4-VISTA-ECD-Fc (human); experiment: ELISA on plate-bound VISTA-ECD-Fc
[34] = molecular target: 3xN-VISTA-ECD-Fc (human); experiment: ELISA on plate-bound VISTA-ECD-Fc
[35] = molecular target: 2xN-VISTA-ECD-Fc (human); experiment: ELISA on plate-bound VISTA-ECD-Fc
[36] = molecular target: T3, RFQ-VISTA-ECD-Fc (human); experiment: ELISA, 10 ug/mL antibody on plate-bound mutant VISTA-Fc
T3 construct: also called hVISTA ECD-Fc R54A, F62A, Q63A; human VISTA-Fc 54A62A63A

B1: VSTB174 (antibody, V domains shown)
VH: QVQLVQSGAEVKKPGSSVKVSCKASGGTFSSYAISWVRQAPGQGLEWMGGIIPIFGTANYAQKFQGRVTITADESTSTAYMELSSLRSEDTAVYYCARSSYGWSYEFDYWGQGTLVTVSS
VL: DIQMTQSPSSLSASVGDRVTITCRASQSIDTRLNWYQQKPGKAPKLLIYSASSLQSGVPSRFSGSGSGTDFTLTISSLQPEDFATYYCQQSAYNPITFGQGTKVEIKR
What does the source list for B1?
EC50 [1]: 0.1 µg/mL; EC50 [2]: 0.1 µg/mL; EC50 [3]: 0.09 µg/mL; EC50 [4]: 0.1 µg/mL; EC50 [5]: 0.1 µg/mL; EC50 [6]: 74 µg/mL; EC50 [7]: 0.06 µg/mL; EC50 [8]: 21 µg/mL; EC50 [9]: 0.05 µg/mL; EC50 [10]: 0.1 µg/mL; EC50 [11]: 0.08 µg/mL; EC50 [12]: 0.1 µg/mL; EC50 [13]: 0.1 µg/mL; EC50 [14]: 0.04 µg/mL; EC50 [15]: 0.06 µg/mL; EC50 [16]: 0.09 µg/mL; EC50 [17]: 0.04 µg/mL; EC50 [18]: 0.1 µg/mL; EC50 [19]: 0.06 µg/mL; EC50 [20]: 0.07 µg/mL; EC50 [21]: 0.08 µg/mL; EC50 [22]: 0.1 µg/mL; EC50 [23]: 0.07 µg/mL; EC50 [24]: 0.07 µg/mL; EC50 [25]: 0.09 µg/mL; EC50 [26]: 0.1 µg/mL; EC50 [27]: 0.06 µg/mL; EC50 [28]: 0.1 µg/mL; EC50 [29]: 0.1 µg/mL; EC50 [30]: 0.11 µg/mL; EC50 [31]: 0.1 µg/mL; EC50 [32]: 0.08 µg/mL; EC50 [33]: 0.08 µg/mL; EC50 [34]: 0.1 µg/mL; EC50 [35]: 0.1 µg/mL; ELISA Abs 450 nm [36]: 0.017 Abs 450 nm
